Molecular target: T1, Interstitial collagenase (Homo sapiens, UniProt P03956)
T1 sequence (P03956 whole entry): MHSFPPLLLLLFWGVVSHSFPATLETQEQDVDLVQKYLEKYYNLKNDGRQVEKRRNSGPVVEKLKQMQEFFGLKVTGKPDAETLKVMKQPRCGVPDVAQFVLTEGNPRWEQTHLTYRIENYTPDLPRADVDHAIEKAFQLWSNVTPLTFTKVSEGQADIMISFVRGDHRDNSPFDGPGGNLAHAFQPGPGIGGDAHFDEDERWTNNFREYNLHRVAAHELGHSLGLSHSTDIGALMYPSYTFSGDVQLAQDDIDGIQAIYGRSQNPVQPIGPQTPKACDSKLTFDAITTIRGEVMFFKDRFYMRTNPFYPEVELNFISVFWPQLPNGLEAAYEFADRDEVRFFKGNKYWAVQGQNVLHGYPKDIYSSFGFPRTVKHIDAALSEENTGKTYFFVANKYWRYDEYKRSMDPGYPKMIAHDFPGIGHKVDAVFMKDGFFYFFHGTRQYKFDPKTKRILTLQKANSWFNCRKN
Test: Inhibition of human matrix metalloprotease-1

Work on `COc1ccc(S(=O)(=O)N2CC(C)(C)C(CSCc3ccccc3)[C@@H]2C(=O)NO)cc1` (stereo partly specified) yielded an IC50 of 0.198 µM.
